Data: ChEMBL document CHEMBL4321790, “Why Some Targets Benefit from beyond Rule of Five Drugs” (J Med Chem, 2019)

Target: T1, 3-hydroxy-3-methylglutaryl-coenzyme A reductase (Homo sapiens, UniProt P04035)
T1 sequence (P04035 whole entry): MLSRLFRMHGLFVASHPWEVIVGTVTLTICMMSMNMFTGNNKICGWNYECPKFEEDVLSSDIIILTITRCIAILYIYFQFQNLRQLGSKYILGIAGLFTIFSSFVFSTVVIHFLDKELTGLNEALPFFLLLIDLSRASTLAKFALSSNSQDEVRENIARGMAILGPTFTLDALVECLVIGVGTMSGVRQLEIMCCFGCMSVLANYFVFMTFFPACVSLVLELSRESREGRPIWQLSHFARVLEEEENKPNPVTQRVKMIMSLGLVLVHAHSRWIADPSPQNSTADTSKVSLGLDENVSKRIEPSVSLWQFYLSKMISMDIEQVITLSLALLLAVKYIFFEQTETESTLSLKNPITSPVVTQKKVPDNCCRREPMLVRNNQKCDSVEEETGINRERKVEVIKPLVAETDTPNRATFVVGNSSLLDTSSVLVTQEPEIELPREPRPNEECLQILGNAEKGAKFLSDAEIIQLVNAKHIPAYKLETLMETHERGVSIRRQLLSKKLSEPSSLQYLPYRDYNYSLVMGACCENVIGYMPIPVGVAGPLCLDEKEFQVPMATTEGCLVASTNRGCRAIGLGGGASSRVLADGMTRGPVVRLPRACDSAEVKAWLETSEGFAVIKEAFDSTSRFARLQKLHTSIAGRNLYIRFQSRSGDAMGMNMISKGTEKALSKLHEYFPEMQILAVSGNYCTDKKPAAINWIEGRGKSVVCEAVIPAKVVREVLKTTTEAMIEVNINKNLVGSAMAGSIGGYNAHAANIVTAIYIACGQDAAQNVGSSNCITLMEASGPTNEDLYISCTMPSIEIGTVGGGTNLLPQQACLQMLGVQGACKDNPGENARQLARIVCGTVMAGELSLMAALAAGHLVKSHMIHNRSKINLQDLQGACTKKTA
Experiment: Inhibition of HMG-CoA Reductase (unknown origin)

Question: CC(C)c1c(C(=O)Nc2ccccc2)c(-c2ccccc2)c(-c2ccc(F)cc2)n1CC[C@@H](O)C[C@@H](O)CC(=O)O [ATORVASTATIN] was tested. Which Ki did it give?
Answer: 6.2 nM
